Reference: patent US20100160411A1, “BENZOXATHIINE AND BENZOXATHIOLE DERIVATIVES AND USES THEREOF” (Wyeth, priority 2006, published 2010)

By UniProt entry, the sequences of proteins in these tests, tags left out. Residues count along the entry.
UniProt P28335, 33-458: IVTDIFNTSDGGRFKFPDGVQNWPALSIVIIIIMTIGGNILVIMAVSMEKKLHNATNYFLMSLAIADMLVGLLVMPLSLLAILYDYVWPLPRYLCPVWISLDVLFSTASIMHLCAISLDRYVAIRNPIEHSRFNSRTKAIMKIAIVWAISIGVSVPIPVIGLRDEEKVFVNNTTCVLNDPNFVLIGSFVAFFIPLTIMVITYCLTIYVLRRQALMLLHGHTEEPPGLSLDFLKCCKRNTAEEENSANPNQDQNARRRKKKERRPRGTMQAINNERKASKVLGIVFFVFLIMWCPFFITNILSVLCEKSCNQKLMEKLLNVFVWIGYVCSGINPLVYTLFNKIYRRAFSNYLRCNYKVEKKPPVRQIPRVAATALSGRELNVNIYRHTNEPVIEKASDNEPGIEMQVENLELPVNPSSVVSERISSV

Assays:
human 5-HT2C receptor = human 5-HT2C receptor (Homo sapiens, UniProt P28335); experiment: calcium mobilization (FLIPR) in CHO cells stably expressing the human 5-HT2C receptor; format: cell-based; conditions: reference compounds, Fluo-3-AM
[1] = molecular target: T1, human 5-hydroxytryptamine-2C (h5-HT2C) receptor (Homo sapiens, UniProt P28335); experiment: [125I]DOI binding to membranes of CHO cells expressing the h5-HT2C receptor; conditions: reference compounds; 95% confidence interval in parentheses; [125I]DOI radioligand, CHO cell membranes
T1 construct: expressed in transfected cells; host or cells: CHO (Chinese Hamster Ovary) cells; membrane preparation

Compound `Cn1ccc2cc3c(cc21)CCN3C(=O)Nc1cccnc1` has an EC50 (human 5-HT2C receptor) of 13 nM.

With `Clc1cccc(N2CCNCC2)c1` [mCPP, meta-chlorophenylpiperazine] the EC50 (human 5-HT2C receptor) was 5.4 nM and the Ki [1] was 6.5 nM.
